# Literature values as cited in paper PMC12119672, “Development and evaluation of [^11C]DPA-813 and [^18F]DPA-814: novel TSPO PET tracers insensitive to human single nucleotide polymorphism rs6971” (European Journal of Nuclear Medicine and Molecular Imaging, 2025).
# The chains behind the UniProt entries cited, without tags or fusion partners.
# UniProt P30536, whole entry T147A: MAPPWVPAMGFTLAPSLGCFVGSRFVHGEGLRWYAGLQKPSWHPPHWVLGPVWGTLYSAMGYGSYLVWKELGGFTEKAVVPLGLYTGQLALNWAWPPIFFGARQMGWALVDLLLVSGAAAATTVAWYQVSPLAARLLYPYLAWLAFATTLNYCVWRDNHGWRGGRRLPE
# UniProt P30536, whole entry, stated change not applied: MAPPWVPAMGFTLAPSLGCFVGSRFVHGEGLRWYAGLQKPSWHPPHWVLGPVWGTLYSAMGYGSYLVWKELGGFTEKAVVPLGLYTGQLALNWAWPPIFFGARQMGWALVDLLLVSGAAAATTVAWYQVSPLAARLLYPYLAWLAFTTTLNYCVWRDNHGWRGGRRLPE
# Columns and labels:
# WT human TSPO = molecular target: T1, WT human TSPO (Homo sapiens, UniProt P30536); set-up: method as in PMID 30108706; conditions: identical assay conditions; read-out: Ki WT hTSPO; cited from earlier work
# T1 construct: expressed in transfected cells
# A147T human TSPO = molecular target: T2, A147T human TSPO (Homo sapiens, UniProt P30536); set-up: method as in PMID 30108706; conditions: identical assay conditions; read-out: Ki A147T hTSPO; cited from earlier work
# T2 construct: expressed in transfected cells
smiles,measurement,setting,value
CC[C@@H](C)N(C)C(=O)c1cc2ccccc2c(-c2ccccc2Cl)n1 [(R)-PK 11195],Ki,WT human TSPO,0.0292 µM
same,Ki,A147T human TSPO,0.036 µM
